Among the data in publication PMC4945142 (Molecular Biology of the Cell, 2016) are Kd values, retold here.

In the assay the target is γ-tubulin small complex (γTuSC) with γ-tubulin^S48C/S153C, Spc97-YFP and Spc98-CFP (budding yeast) (UniProt P53378). As to the kind of experiment: FRET or BRET. On the technique in general: BRET reads energy transfer from a luciferase to a nearby fluorophore.

One may read the Kd as a measure of binding affinity in units of concentration. Higher therefore signals weaker binding. Substance “E. coli-expressed GST-Spc110p^1-220 (from UniProt P32380 1-220) (domain or fragment)” returned a Kd of 0.37 µM.
